PubChem BioAssay AID1487 (National Center for Advancing Translational Sciences (NCATS), 2009)
This is a selection; strong and weak results do not stand in their true shares. Results filed as inconclusive are left out. Calls of active or inactive are those of the source. Calls come from the whole dose curve; as a rule, active = well fitted inhibition curve with a large enough effect in the signal ratio, with a control signal flat (not every such curve was filed as active); inconclusive = small, poorly fitted or top-dose-only effect, or effect the other way, or a change in a side signal; inactive = flat fitted curve, though single readings scatter; the % refers to the signal ratio.
% is set by controls: 0 for no effect and ±100 for the full control effect.

Test: qHTS Assay for Modulators of Lamin A Splicing
Conditions: HeLa LMNA splicing GFP/RFP minigene ratio, 48 h; at 46.1 µM (top of the series) unless noted
With `O=[N+]([O-])OCC(CO[N+](=O)[O-])(CO[N+](=O)[O-])CO[N+](=O)[O-]` the ratio change, negative = inhibition was inactive: 2.79%. For `CC1=NCCc2c1[nH]c1ccccc21.O=[N+]([O-])c1cc([N+](=O)[O-])c(O)c([N+](=O)[O-])c1`, the ratio change, negative = inhibition was inactive: -28.4%. For `Cc1cc(C)cc(OP(C)(=O)Nc2ccccn2)c1` (stereo unspecified), the ratio change, negative = inhibition was inactive: 9.77%. In the case of `CP(=O)(Nc1cccc(Br)c1)Oc1ccccc1` (stereo unspecified), the ratio change, negative = inhibition is reported as inactive: -21.6% [at 46 µM]. For `Cc1ccc(C)c(NP(C)(=O)Oc2ccccc2)c1` (stereo unspecified), the ratio change, negative = inhibition was inactive: 2.93%. With `Cc1cc(C)cc(OP(C)(=O)Nc2ccc(C)cc2C)c1` (stereo unspecified) the ratio change, negative = inhibition was inactive: -8.22%. In the case of `Cc1nc2ccc3ccccc3c2s1.O=[N+]([O-])c1cc([N+](=O)[O-])c(O)c([N+](=O)[O-])c1`, the ratio change, negative = inhibition is reported as inactive: 16.8%. For `O=[N+]([O-])c1cc([N+](=O)[O-])c(-n2nnc3ccccc32)c([N+](=O)[O-])c1`, the ratio change, negative = inhibition was inactive: 1.14% [at 46 µM]. In the case of `CN1CCCCC1COC(=O)C1(O)c2ccccc2CCc2ccccc21` (stereo unspecified), the ratio change, negative = inhibition is reported as inactive: -10.3%. With `COc1ccccc1OP(C)(=O)Nc1c(C)cccc1C` (stereo unspecified) the ratio change, negative = inhibition was inactive: -5.02%. In the case of `CCCOc1ccc(NP(C)(=O)Oc2ccc(Cl)cc2)cc1` (stereo unspecified), the ratio change, negative = inhibition is reported as inactive: -6.45% [at 46 µM]. For `CP(=S)(Nn1cnnc1)Oc1ccccc1` (stereo unspecified), the ratio change, negative = inhibition was inactive: 8.23%. For `COc1ccccc1OP(C)(=O)Nc1ccccc1` (stereo unspecified), the ratio change, negative = inhibition was inactive: -0.146% [at 46 µM]. With `CP(=O)(Nc1ccccc1Br)Oc1ccccc1` (stereo unspecified) the ratio change, negative = inhibition was inactive: 4.07%. For `CCOP(C)(=S)SCC(=O)NC(C)C(=O)O` (stereo unspecified), the ratio change, negative = inhibition was inactive: 4.91%. With `CCOC(=O)c1ccc(NP(C)(=O)Oc2ccc(OC)cc2)cc1` (stereo unspecified) the ratio change, negative = inhibition was inactive: -12.5%. In the case of `CP(=O)(Nc1ccccn1)Oc1ccc(Cl)cc1` (stereo unspecified), the ratio change, negative = inhibition is reported as inactive: -0.963%. For `CP(=O)(Oc1ccccc1)OC(c1ccccc1)C(F)(F)F` (stereo unspecified), the ratio change, negative = inhibition was inactive: 22.2% [at 46 µM]. In the case of `Cc1cc(C)cc(OP(C)(=O)Nc2ccc(SC(F)(F)F)cc2)c1` (stereo unspecified), the ratio change, negative = inhibition is reported as inactive: -9.43%. For `CP(=O)(NC(=O)Nc1ccccc1)Oc1ccccc1` (stereo unspecified), the ratio change, negative = inhibition was inactive: 6.11%. For `O=[N+]([O-])[O-].[NH4+]`, the ratio change, negative = inhibition was inactive: -22%. With `CCN(CC)CCCOC(=O)C(O)(c1ccccc1)c1ccccc1` the ratio change, negative = inhibition was inactive: 1.66% [at 9.22 µM]. In the case of `Cc1ccc(NP(C)(=O)Oc2ccccc2)c(C)c1` (stereo unspecified), the ratio change, negative = inhibition is reported as inactive: 9.64%. For `COc1ccccc1OP(C)(=O)Nc1ccc(C)cc1` (stereo unspecified), the ratio change, negative = inhibition was inactive: -7.06%. In the case of `COc1ccc(OP(C)(=O)Nc2cccc(F)c2)cc1` (stereo unspecified), the ratio change, negative = inhibition is reported as inactive: -0.919%. With `Cc1cc(C)cc(OP(C)(N)=O)c1` (stereo unspecified) the ratio change, negative = inhibition was inactive: 7.68% [at 46 µM]. In the case of `Cc1cccc(C)c1OP(C)(N)=O` (stereo unspecified), the ratio change, negative = inhibition is reported as inactive: 9.75% [at 46 µM]. With `Cc1nc2ccc3ccccc3c2o1.O=[N+]([O-])c1cc([N+](=O)[O-])c(O)c([N+](=O)[O-])c1` the ratio change, negative = inhibition was inactive: 15.5%. With `CP(=O)(OCCOc1ccccc1)OCCOc1ccccc1` the ratio change, negative = inhibition was inactive: -5.2% [at 46 µM]. For `COc1ccc(OP(C)(=O)Nc2ccccc2Br)cc1` (stereo unspecified), the ratio change, negative = inhibition was inactive: -12%. With `COc1ccccc1OP(C)(=O)Nc1ccc(C)c(C)c1` (stereo unspecified) the ratio change, negative = inhibition was inactive: 3.43%. In the case of `Cc1c(NP(C)(=O)Oc2ccc(C(C)C)cc2)c(=O)n(-c2ccccc2)n1C` (stereo unspecified), the ratio change, negative = inhibition is reported as inactive: 5.32%. In the case of `CCc1ccc(OP(C)(=O)O)cc1`, the ratio change, negative = inhibition is reported as inactive: 10.5%. For `COc1ccccc1OP(C)(=O)Nc1ccc(C)cc1C` (stereo unspecified), the ratio change, negative = inhibition was inactive: 8.96%. For `CP(=O)(Nc1ccccn1)Oc1ccccc1` (stereo unspecified), the ratio change, negative = inhibition was inactive: -1.52%. With `CN(C)CCOC(=O)C(O)(c1ccccc1)C1CCCC1` (stereo unspecified) the ratio change, negative = inhibition was inactive: -3.94%. In the case of `COc1ccc(OP(C)(=O)Nc2ccccn2)cc1` (stereo unspecified), the ratio change, negative = inhibition is reported as inactive: 5.76%. In the case of `CP(=O)(Nc1ccc(Cl)cc1)Oc1ccc(F)cc1` (stereo unspecified), the ratio change, negative = inhibition is reported as inactive: 0.719%. With `CC(C)(C)c1ccc(OP(C)(=O)O)cc1` the ratio change, negative = inhibition was inactive: 5.65%. In the case of `CCN(CC)CC(O)COC(=O)C(O)(c1ccccc1)C1CCCCC1` (stereo unspecified), the ratio change, negative = inhibition is reported as inactive: -0.83%. For `CCc1ccc(OP(C)(=O)Nc2cccnc2)cc1` (stereo unspecified), the ratio change, negative = inhibition was inactive: -4.13% [at 46 µM]. For `CP(=O)(Oc1ccccc1)N1CCOC1=O` (stereo unspecified), the ratio change, negative = inhibition was inactive: 6.18%. For `COc1ccccc1OP(C)(=O)Nc1c(C)n(C)n(-c2ccccc2)c1=O` (stereo unspecified), the ratio change, negative = inhibition was inactive: 6.05%. With `CP(=O)(OC12CC3CC(CC(C3)C1)C2)OC12CC3CC(CC(C3)C1)C2` the ratio change, negative = inhibition was inactive: 14.6%. With `CCOC(=O)c1ccc(NP(C)(=O)Oc2ccc(Cl)cc2)cc1` (stereo unspecified) the ratio change, negative = inhibition was inactive: 3.78%. In the case of `COc1ccc(OP(C)(=O)Nc2cccc(Br)c2)cc1` (stereo unspecified), the ratio change, negative = inhibition is reported as inactive: -5.92%. For `CN(C)CCOC(=O)C(O)(c1ccccc1)C1CCCCC1` (stereo unspecified), the ratio change, negative = inhibition was inactive: -1.08%. With `CP(=O)(Nc1ccc2c(c1)OCCO2)Oc1ccccc1` (stereo unspecified) the ratio change, negative = inhibition was inactive: -8.22%. For `Cc1ccccc1NP(C)(=O)Nc1ccccc1C`, the ratio change, negative = inhibition was inactive: -2.01%. In the case of `CCN(CCCl)Cc1ccccc1C`, the ratio change, negative = inhibition is reported as inactive: -23.1%. For `CCOP(C)(=S)SCC(=O)NC(C)(CC)C(=O)O` (stereo unspecified), the ratio change, negative = inhibition was inactive: -8.05%. In the case of `O=C(OCCN1CCN(CCOCc2ccccc2)CC1)C(O)(c1ccccc1)c1ccccc1`, the ratio change, negative = inhibition is reported as inactive: 8.3%. In the case of `CP(=O)(Nc1ccccc1F)Oc1ccccc1` (stereo unspecified), the ratio change, negative = inhibition is reported as inactive: 5.92%. In the case of `CCN(CC)CCCOC(=O)C(O)(c1ccccc1)C1CCCCC1` (stereo unspecified), the ratio change, negative = inhibition is reported as inactive: 2.01%. For `CP(=O)(Nc1ccccc1)Oc1ccc(F)cc1` (stereo unspecified), the ratio change, negative = inhibition was inactive: -6.3%. In the case of `CCOC(=O)c1ccc(NP(C)(=O)Oc2ccc(F)cc2)cc1` (stereo unspecified), the ratio change, negative = inhibition is reported as inactive: 0.446%.
